Laboratory results taken from BindingDB's records for PubMed 2250662 (Glaxo Group Research, 1990).
pKi: −log10 of the molar value.

Amino acid sequences for entries named in this document (tags omitted). A change or cut given only in a name is not applied to a line headed by its entry.
UniProt P10980, whole entry: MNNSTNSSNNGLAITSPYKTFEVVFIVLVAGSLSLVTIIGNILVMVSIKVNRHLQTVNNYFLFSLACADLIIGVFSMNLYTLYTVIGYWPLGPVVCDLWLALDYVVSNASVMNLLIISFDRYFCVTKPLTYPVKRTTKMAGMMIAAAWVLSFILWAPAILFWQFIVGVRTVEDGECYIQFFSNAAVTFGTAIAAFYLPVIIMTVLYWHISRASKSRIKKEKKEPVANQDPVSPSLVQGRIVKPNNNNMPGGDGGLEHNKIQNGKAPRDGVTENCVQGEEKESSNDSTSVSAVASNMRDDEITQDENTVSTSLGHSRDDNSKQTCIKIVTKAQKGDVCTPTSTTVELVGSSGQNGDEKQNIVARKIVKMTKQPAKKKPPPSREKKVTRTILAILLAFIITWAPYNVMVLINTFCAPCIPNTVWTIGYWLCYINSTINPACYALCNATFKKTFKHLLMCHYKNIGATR
UniProt A0A5F9DUN4, whole entry: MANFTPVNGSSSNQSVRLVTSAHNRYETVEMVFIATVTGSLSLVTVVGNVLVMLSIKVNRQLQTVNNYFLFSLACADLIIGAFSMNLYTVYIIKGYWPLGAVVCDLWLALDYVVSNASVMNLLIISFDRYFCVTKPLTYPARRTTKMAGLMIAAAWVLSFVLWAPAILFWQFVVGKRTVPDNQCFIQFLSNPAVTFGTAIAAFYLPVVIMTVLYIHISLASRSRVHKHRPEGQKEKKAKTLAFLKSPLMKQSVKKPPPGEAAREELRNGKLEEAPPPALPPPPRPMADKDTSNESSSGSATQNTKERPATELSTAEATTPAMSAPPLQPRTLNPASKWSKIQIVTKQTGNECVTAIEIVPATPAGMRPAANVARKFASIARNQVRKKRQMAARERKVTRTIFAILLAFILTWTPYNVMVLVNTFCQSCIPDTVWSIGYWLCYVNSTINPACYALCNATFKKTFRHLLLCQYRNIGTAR
UniProt P08482: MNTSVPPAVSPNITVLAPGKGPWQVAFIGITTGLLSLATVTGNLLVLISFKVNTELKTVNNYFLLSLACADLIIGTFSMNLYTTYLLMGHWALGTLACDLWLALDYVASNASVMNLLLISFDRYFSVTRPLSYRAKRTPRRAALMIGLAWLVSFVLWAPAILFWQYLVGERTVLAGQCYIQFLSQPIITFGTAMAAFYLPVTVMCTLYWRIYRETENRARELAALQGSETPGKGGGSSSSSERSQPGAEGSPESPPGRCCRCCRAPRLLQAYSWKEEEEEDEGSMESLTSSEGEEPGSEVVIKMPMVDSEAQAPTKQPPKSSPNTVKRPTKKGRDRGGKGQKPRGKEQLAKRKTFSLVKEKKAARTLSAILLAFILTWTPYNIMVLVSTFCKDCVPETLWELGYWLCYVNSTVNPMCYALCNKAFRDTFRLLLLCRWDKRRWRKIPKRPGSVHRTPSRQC
UniProt P08483, whole entry: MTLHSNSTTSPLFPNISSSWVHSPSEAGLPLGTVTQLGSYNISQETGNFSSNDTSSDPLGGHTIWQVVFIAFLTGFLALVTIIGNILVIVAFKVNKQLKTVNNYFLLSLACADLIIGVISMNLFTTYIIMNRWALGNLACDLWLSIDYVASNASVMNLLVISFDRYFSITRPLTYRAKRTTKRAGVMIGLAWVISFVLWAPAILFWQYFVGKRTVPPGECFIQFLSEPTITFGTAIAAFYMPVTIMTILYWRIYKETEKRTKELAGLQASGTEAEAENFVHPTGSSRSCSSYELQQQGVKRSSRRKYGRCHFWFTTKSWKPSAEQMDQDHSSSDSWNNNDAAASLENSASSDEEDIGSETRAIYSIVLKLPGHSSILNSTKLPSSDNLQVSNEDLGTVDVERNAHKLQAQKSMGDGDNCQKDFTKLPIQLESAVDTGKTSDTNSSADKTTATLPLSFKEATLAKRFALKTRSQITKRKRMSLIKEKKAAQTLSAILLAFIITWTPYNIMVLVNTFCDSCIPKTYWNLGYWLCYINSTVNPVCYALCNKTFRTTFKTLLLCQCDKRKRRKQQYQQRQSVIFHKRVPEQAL

Columns and labels:
[1] = target: Muscarinic acetylcholine receptor M2 (Rattus norvegicus, UniProt P10980)
[2] = target: Muscarinic acetylcholine receptor (Oryctolagus cuniculus, UniProt A0A5F9DUN4)
[3] = target: Muscarinic acetylcholine receptor M1 (Rattus norvegicus, UniProt P08482)
[4] = target: Muscarinic acetylcholine receptor M3 (Rattus norvegicus, UniProt P08483)

Row | Structure (SMILES) | pKi [1] | pKi [2] | pKi [3] | pKi [4]
1 | CN1C2CC(OC(=O)C(CO)c3ccccc3)CC1C1OC12 (stereo unspecified) [3-hydroxy-2-phenyl-propionic acid 9-methyl-3-oxa-9-aza-tricyclo[3.3.1.0*2,4*]non-7-yl ester] | 8.85 | – | – | –
2 | CN1[C@@H]2CC[C@H]1CC(OC(=O)[C@H](CO)c1ccccc1)C2 (stereo partly specified) [CAS_51-55-8] | – | 9.55 | – | –
3 | COc1ccccc1CNCCCCCCNCCCCCCCCNCCCCCCNCc1ccccc1OC [METHOCTRAMINE] | – | – | 7.60 | –
4 | CC(C)[N+]1(C)[C@@H]2CC[C@H]1CC(OC(=O)[C@@H](CO)c1ccccc1)C2 (stereo partly specified) [NSC_3746] | 9.44 | – | 9.15 | 9.43
